Source: patent US4906661A, “Esters of aryloxypropanolamine derivatives” (E. I. Du Pont de Nemours and Company, priority 1989, dated 1990)

The chains behind the UniProt entries cited, without tags or fusion partners. Residues count along the entry.
UniProt H0W3H1, 1-470: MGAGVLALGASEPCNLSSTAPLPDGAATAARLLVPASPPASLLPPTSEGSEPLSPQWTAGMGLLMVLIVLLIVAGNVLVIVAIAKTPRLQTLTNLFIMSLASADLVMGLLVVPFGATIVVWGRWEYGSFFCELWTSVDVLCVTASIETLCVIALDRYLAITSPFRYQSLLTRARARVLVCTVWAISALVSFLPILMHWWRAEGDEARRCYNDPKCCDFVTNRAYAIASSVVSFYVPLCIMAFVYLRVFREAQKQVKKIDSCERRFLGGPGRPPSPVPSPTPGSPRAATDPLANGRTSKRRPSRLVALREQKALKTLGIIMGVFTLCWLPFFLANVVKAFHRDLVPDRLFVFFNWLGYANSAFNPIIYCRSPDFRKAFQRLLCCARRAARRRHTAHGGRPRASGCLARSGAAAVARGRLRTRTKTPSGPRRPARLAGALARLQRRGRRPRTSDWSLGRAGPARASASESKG

Molecular target: β1 receptors, guinea pig right atria (Cavia porcellus, UniProt H0W3H1)
Experiment: cell-based
Settings: read-out: PA2 Rt. Atria (converted)
Method: Each tissue was suspended between a fixed glass rod and a Statham Universal Transducer connected to a Beckman recorder. Atria were allowed to beat spontaneously under a loading tension of approximately 0.5 gm. Intrinsic depressant or stimulant activity was determined for each compound by progressively increasing concentrations in the tissue baths at 60-minute intervals. Tissues were not washed between increments. The maximum concentration showing little or no cardiodepressant activity was chosen for blockade experiments. Changes in rate in response to isoproterenol, a standard β-receptor agonist, were measured in the absence and presence of test compounds. Spiral strips of guinea pig trachea were suspended under 5 gm resting tension and incubated with phentolamine, tropolone and cocaine. Active tension was generated by addition of carbachol (3.0×10^-7 M) and decreases in tension in response to isoproterenol were quantitated. Cumulative concentration-response curves were produced with isoproterenol both before and after 60-minute incubation of test compounds with atria and trachea. […] The blocking potency of test compounds was estimated by computing pA2 values (-log KB) by the method of Furchgott, the Pharmacological Differentiation of Adrenergic Receptors, Ann. […] The degree of cardioselectivity was estimated from the ratio, KB trachea/KB atria (10^(pA2 atria-pA2 trachea)). […]

## COC(=O)c1ccccc1OCC(O)CNC(C)(C)CNS(=O)(=O)c1ccccc1 (stereo not shown) [VIII, Methyl 2-[2-Hydroxy-3-[N-[1,1-dimethyl-2-(phenylsulfonylamino)ethyl]amino]proxy]benzoate Oxalate]
  Kb: 2 nM

Counter-ions that a name gives are not always drawn.
